# Laboratory results: patent US8247609B2, “Aminoacid derivatives containing a disulfanyl group in the form of mixed disulfanyl and aminopeptidase N inhibitors” (Pharamleads, priority 2005, dated 2012)
# Legend:
# male Sprague-Dawley rats = assay: Tail-flick test in rats; assay type: in vivo, rat; conditions: compound 15 5 mg/kg, Δ^9 THC 0.375 mg/kg, IV, ethanol/Tween 80/water, 10 min after injection
# male OF1 mice = assay: Swim test (Porsolt) in mice; conditions: compound 15 5 mg/kg, Δ^9 THC 0.375 mg/kg, IV 10 min before test; total immobilization time measured for 4 minutes
SMILES,Tail-flick test % analgesia (male Sprague-Dawley rats) [%],Depression/swim test. Mobilization (male OF1 mice)
CCOC(=O)OC(C)OC(=O)CNC(=O)C(CSSC[C@@H](N)CCSC)Cc1ccccc1 (stereo partly shown) [Compound 15],−4.2 ± 1.9,180 ± 8.4
"CCCCCc1cc(O)c2c(c1)OC(C)(C)[C@@H]1CCC(C)=C[C@@H]21 [Δ^9 THC, Δ^9 tetrahydrocannabinol, reference compound]",23.3 ± 2.4,206 ± 6.1
